Measured values as given in ChEMBL document CHEMBL1139291, “Syntheses and opioid receptor binding properties of carboxamido-substituted opioids” (Bioorg Med Chem Lett, 2009).
pEC50, pKi: −log10 of the molar value.

By UniProt entry, the sequences of proteins in these tests, tags left out. Where a name states a change or a piece, a line headed by the entry shows the natural chain unless it says otherwise.
UniProt P41143, whole entry: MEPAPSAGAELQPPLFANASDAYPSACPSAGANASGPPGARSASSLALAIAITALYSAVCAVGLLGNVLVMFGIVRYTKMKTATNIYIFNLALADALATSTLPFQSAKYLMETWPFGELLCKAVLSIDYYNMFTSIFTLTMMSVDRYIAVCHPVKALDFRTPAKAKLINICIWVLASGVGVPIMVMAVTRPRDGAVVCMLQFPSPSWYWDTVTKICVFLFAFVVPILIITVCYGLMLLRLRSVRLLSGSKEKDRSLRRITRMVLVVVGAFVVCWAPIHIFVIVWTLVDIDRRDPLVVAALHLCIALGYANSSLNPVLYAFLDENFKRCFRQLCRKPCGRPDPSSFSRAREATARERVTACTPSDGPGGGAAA
UniProt P35372, whole entry: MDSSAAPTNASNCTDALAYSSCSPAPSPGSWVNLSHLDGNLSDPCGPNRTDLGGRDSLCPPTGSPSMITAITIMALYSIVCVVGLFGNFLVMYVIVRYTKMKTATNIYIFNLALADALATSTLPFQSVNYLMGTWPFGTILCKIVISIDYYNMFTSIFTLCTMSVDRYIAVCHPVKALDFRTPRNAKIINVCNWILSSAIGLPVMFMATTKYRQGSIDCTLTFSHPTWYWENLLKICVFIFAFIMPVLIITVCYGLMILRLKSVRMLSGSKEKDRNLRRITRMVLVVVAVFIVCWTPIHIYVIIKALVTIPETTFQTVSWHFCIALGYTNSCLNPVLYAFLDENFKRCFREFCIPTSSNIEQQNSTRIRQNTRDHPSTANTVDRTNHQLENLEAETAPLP
UniProt P41145: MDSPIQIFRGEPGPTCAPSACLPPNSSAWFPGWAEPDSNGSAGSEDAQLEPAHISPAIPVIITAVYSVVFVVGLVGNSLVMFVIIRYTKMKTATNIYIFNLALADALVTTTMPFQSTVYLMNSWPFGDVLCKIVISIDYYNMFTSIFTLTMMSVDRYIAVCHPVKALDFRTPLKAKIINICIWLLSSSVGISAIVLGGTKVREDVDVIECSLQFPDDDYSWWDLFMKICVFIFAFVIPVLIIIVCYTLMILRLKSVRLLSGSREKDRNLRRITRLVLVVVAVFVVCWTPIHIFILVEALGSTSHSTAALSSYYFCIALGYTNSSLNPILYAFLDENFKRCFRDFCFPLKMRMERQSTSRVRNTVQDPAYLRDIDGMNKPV

Key:
[1] = molecular target: Delta-type opioid receptor (Homo sapiens, UniProt P41143); experiment: Displacement of [3H]Naltrindole form human delta opioid receptor expressed in CHO cells; assay type: cell-based
Mu-type opioid receptor = Mu-type opioid receptor (Homo sapiens, UniProt P35372); experiment: biochemical; assay type: cell-based, CHO
[2] = molecular target: T1, Kappa-type opioid receptor (Homo sapiens, UniProt P41145); experiment: biochemical; assay type: cell-based, CHO
Cavia porcellus = species: Cavia porcellus; experiment: Ratio of Ki for delta opioid receptor to Ki for kappa opioid receptor in guinea pig brain
[3] = molecular target: T1, Kappa-type opioid receptor; assay type: functional, cell-based, CHO

Row | Structure (SMILES) | pKi [1] | pKi (Mu-type opioid receptor) | pKi [2] | Ratio Ki (Cavia porcellus) | pEC50 [3]
1 | Oc1ccc2c3c1O[C@H]1[C@H](O)CC[C@@]4(O)[C@@H](C2)N(CC2CC2)CC[C@]314 | 7.28 | 9.72 | 9.32 | – | –
2 | CN(C)C[C@H]1CCCC[C@]1(O)c1cccc(O)c1 (relative stereo) [O-DESMETHYL TRAMADOL] | – | 8.07 | – | – | –
3 | Oc1ccc2c3c1O[C@H]1[C@@H](O)CC[C@@]4(O)[C@@H](C2)N(CC2CC2)CC[C@]314 | 7.25 | 9.68 | 9.25 | – | –
4 | CC1C2C(=O)c3ccc(C(N)=O)cc3C1(C)CCN2CC1CC1 (stereo not given) | – | – | – | 11 | –
5 | CC1C2Cc3ccc(C(N)=O)cc3C1(C)CCN2CC1CC1 (stereo not given) | – | – | 10.22 | – | 8.62
